scFv variants of Ab-91 (heavy chain) against a SARS-CoV-2 spike peptide

The measurements come from Engelhart et al. 2022 (doi:10.1038/s41597-022-01779-4) through the FLAb antibody collection.

All variants were tested on one target, the spike HR2 peptide PDVDLGDISGINAS (SARS-CoV-2).

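The starting antibody came from a phage panning campaign against this peptide. In library AAYL51, one, two or three CDR residues were substituted; doubles and triples were drawn at random. Affinity was read by AlphaSeq, a pooled yeast mating assay with surface-displayed partners. Binding brings cells together so that they mate, and sequencing counts the barcode pairs among the diploids. A regression on co-assayed BCL2-family reference pairs converts the normalised counts of each replicate to an apparent Kd. Each pool was mated in three replicate cultures.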

Parent scFv Ab-91: VL joined to VH by three GGGGS repeats. Changes lie in the heavy chain CDRs alone.
VL: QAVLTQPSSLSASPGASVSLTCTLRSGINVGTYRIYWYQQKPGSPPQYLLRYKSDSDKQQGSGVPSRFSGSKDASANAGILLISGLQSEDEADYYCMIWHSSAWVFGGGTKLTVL
VH: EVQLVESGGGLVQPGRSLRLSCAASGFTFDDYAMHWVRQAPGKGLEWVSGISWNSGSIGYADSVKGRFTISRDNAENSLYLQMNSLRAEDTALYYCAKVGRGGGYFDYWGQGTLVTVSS

Each variant is given by its three heavy chain CDRs, as the data file delimits them; those of the parent are GFTFDDYAMH, GISWNSGSIGYADSVK, VGRGGGYFDY. Each Kd is an estimate from the mating assay, the geometric mean of the replicates in which the pair was seen; lower is stronger. A pair that was not seen in any replicate is written "nd"; this usually means weak binding, but a binder can also be missed.

CDR-H1	CDR-H2	CDR-H3	apparent Kd	replicates with signal
VFTFDDYAMH	GISWNSGSIGYADSVK	VKNGGGYFDY	16 µM	1 of 3
GFIFDDYAMH	GISCNSGSIGYADSVK	VGRGPGYFDY	39 µM	2 of 3
GFTFDDYAMH	QWSANSGSIGYADSVK	VGRGGGYFDY	68 µM	1 of 3
GFTCDDYAMH	GISWNDGSIGYADSVK	VGRGGGYFKY	35 µM	3 of 3
GFTFDDYAMH	GIMWNSGSIGYADSVK	VGRGGGVFDY	490 µM	3 of 3
GFTFDDYAMH	GISWNSGSIGYAESVK	VGRGGHRFDY	16 nM	3 of 3
GFFFMDYAMH	GITWNSGSIGYADSVK	VGRGGGYFDY	nd	0 of 3
GFTFWDYAMH	GISWSHGSIGYADSVK	VGRGGGYFDY	210 µM	1 of 3
GATFDDYAMH	GIGWNSGSIGYADSVK	VGRGGGYKDY	3.8 µM	1 of 3
GFTFDDYAMH	GISWNSGSIGYADSVK	HWQGGGYFDY	430 µM	3 of 3
LFTFDDYAMH	GISWNSGSIGYADFVK	VGDGGGYFDY	120 µM	2 of 3
GFTFDDYAMH	GRSWLSGSIGYADSVK	VGRGGGYFDY	51 µM	1 of 3
NFTFDDYAMH	GISWNSGSIGYADSVK	VGYGGGYFFY	35 µM	1 of 3
GFTFDTYAMH	GISLNSGSIGYADSVK	VGRGGGYFDY	98 µM	1 of 3
HFTFDDYAMH	GISWNSGSIGYACSVK	VGRWGGYFDY	nd	0 of 3
GFTFDRYRMH	GPSWNSGSIGYADSVK	VGRGGGYFDY	130 µM	2 of 3
GATFDDNAMH	GISWNSGSIGYADSVK	VGRGMGYFDY	nd	0 of 3
GFTFDDYAMH	GISWNSNSIGYADSVV	VGRGGGYFIY	68 µM	1 of 3
GFTFDDYAMH	GISWNRGSIGYADSVK	VGRGGGYFRT	nd	0 of 3
GWTFDDYAMH	GISWNSGSIGYADSVK	VGAGGGYFHY	37 µM	1 of 3
GFTFDDHAMH	GISWVSGSIGYADSVG	VGRGGGYFDY	nd	0 of 3
GFTQDDYAMH	WISWNSGSIGYADSVK	VGRGGGYFDY	nd	0 of 3
GFTFDDYAMH	GISWNKGSIGYADSVK	DGRFGGYFDY	8.4 µM	1 of 3
GFTFDDYAMH	GISWNSCVIGYADEVK	VGRGGGYFDY	270 µM	1 of 3
GFTFDDYAMH	GLSWNSGSIGEAASVK	VGRGGGYFDY	610 µM	1 of 3
GFTFDDYAHH	GIEWNSMSIGYADSVK	VGRGGGYFDY	160 µM	1 of 3
GFTFDDYAMH	GISWNSGSIGYADSVK	VQRGGGSYDY	nd	0 of 3
GWTFDDYAMH	GISWNSGSIGYADSDK	VKRGGGYFDY	25 µM	1 of 3
GFEFDDYAMH	GISWNSGSIGYADQVK	VGRGGGYFDY	11 nM	3 of 3
GFTFDDYAMH	GISWNSGSIHYADSVK	HGRGGGYTDY	25 µM	1 of 3
GVTFDDYAMH	GISWNSGSIGYADYVK	VGRGGGYFDL	nd	0 of 3
GFTFDDKAKH	GISWNSGSIGYADSVK	VGRGGGTFDY	1.5 mM	1 of 3
GFTFDDYAMR	TISWNSGSIGYADSVK	VGRGGGYFDY	17 µM	1 of 3
GFTFDDYAMH	GISWNSGSIGKADSVK	VGRGCGYFDR	290 µM	3 of 3
GFTFDDYAMH	GISWNVGSIGYADNVI	VGRGGGYFDY	5.4 µM	3 of 3
GFFFDDYAMH	GISWNSGSIGYADSIK	VGRGGGYFVY	510 nM	3 of 3
GFTFDDYAMH	GISWNSGSIGSADSVK	VGRGGVYFDY	nd	0 of 3
GFTFDDYAMH	GISWNSGSIVWADSVK	VGRGGGYFDQ	nd	0 of 3
GFTFDDYAMH	GNSWNSGSIGYADSVK	VGWGGTYFDY	45 µM	1 of 3
GFTFDDYAMH	GISWTSGSIGLSDSVK	VGRGGGYFDY	nd	0 of 3
GFTFDDYTMH	GISWNSGSIGYADSVK	VGHGGGYFDY	nd	0 of 3
GFTIDDYAMH	DISWNSGSIGYADSVK	VGRGGGYFEY	15 µM	1 of 3
GKTFDDYAMH	GISWNSGSIHYADSVK	VGRWGGYFDY	nd	0 of 3
RFTFDDYAMH	GISWNSGSIGYADSVK	VARGGNYFDY	160 µM	1 of 3
GDTFDDYAMH	GIMWNSGSIGYADSVF	VGRGGGYFDY	480 µM	2 of 3
GATFHDYAMH	GISWNSGSIGYRDSVK	VGRGGGYFDY	23 µM	2 of 3
GFIFDDYCMH	GISWNSGSIGYADSVK	VGRGGGYFGY	nd	0 of 3
GFTFDDYAMH	GISWNSGSINYPDSVK	VGRGGGYFDY	nd	0 of 3
GATFDDYAMH	GISWNSHSIGYADSVK	VGRGGGYFDC	2.2 µM	3 of 3
GYTFDDYAMH	GIRWNSGSIGYADSVE	VGRGGGYFDY	nd	0 of 3
GFTFDDYAMA	GISWNSGGIGYADSVK	VGRGGGYFDY	97 µM	2 of 3
GFTFEDYAMH	GISWNSGSIGYKDSVS	VGRGGGYFDY	nd	0 of 3
GFTFDDYAMH	GISWNSGSIPPADSVK	IGRGGGYFDY	56 µM	2 of 3
GFTFDDYAAL	GISWNSGSIGYADSVK	VGRGGGYFDY	9.6 µM	1 of 3
GLTFDYYAMH	GISWNSGSIGYADSVK	VGRGGGYFWY	nd	0 of 3
GFTFDDYAMH	GISWNSGSISYADSVK	VGRQGGHFDY	nd	0 of 3
GNTFDDYAMH	GISWNSGSRGYADSVK	VGSGGGYFDY	nd	0 of 3
GFTFDDYAMI	EISWPSGSIGYADSVK	VGRGGGYFDY	nd	0 of 3
GFTFDDYAMH	RISWNSGSIKYADSVK	VGRGGGYFHY	9.8 µM	2 of 3
GFTFDDYAMI	GISWNSGSRGYADSVK	VGRGGGYFDN	210 µM	3 of 3
GFTFDDMAMH	GISWNSGDIGYANSVK	VGRGGGYFDY	800 nM	3 of 3
GFTFDDYAMH	GIMHNSCSIGYADSVK	VGRGGGYFDY	840 nM	1 of 3
GFTFDDTAMH	GISWNSGSIGYFDSVK	VGRGGGYFDY	4.2 µM	2 of 3
GFTFDDRAMH	GWSWNSGSIGYADSVK	VGVGGGYFDY	110 µM	1 of 3
GFTLDDYAMH	GISWISGSIGYADSVK	VGRYGGYFDY	nd	0 of 3

Excerpt, the first 10 entries:

CDR-H1	CDR-H2	CDR-H3	apparent Kd	replicates with signal
VFTFDDYAMH	GISWNSGSIGYADSVK	VKNGGGYFDY	16 µM	1 of 3
GFIFDDYAMH	GISCNSGSIGYADSVK	VGRGPGYFDY	39 µM	2 of 3
GFTFDDYAMH	QWSANSGSIGYADSVK	VGRGGGYFDY	68 µM	1 of 3
GFTCDDYAMH	GISWNDGSIGYADSVK	VGRGGGYFKY	35 µM	3 of 3
GFTFDDYAMH	GIMWNSGSIGYADSVK	VGRGGGVFDY	490 µM	3 of 3
GFTFDDYAMH	GISWNSGSIGYAESVK	VGRGGHRFDY	16 nM	3 of 3
GFFFMDYAMH	GITWNSGSIGYADSVK	VGRGGGYFDY	nd	0 of 3
GFTFWDYAMH	GISWSHGSIGYADSVK	VGRGGGYFDY	210 µM	1 of 3
GATFDDYAMH	GIGWNSGSIGYADSVK	VGRGGGYKDY	3.8 µM	1 of 3
GFTFDDYAMH	GISWNSGSIGYADSVK	HWQGGGYFDY	430 µM	3 of 3

Nonspecific signal, from three strains lacking the peptide, appeared in 21% of pairings of library AAYL51, centred on 34 µM (5% of these signals below 1.8 µM); values are not corrected for it.